Test results reported in patent US20160037772A1, “INCREASING ABIOTIC STRESS TOLERANCE IN PLANTS” (priority 2014, published 2016).

System: tomato plants
Assay: Field trial in tomato plants under heat, light and water stress (sunburn, yield, soluble solids)
Assay type: in vivo
Method: Field trials were conducted in commercial fields and orchards in Chile during the 2011-12 and 2012-13 growing seasons. The results were evaluated by measuring specific fruit parameters affected by abiotic stress including fruit diameter, fruit number, and amount of damage from heat or sunburn. The plants evaluated were apples and tomatoes. The plants in the trials received a conventional application of pesticides, under normal application conditions. The heat and light stress were considered important from the beginning of fruit development. High temperatures ranged between 30-35° C. ambient temperature measured by conventional methods in the shade from December to harvest.
The treatments included (1) no product against abiotic stress; (2) SUNCROPS (kaolin); (3) SUNCROPS PLUS (kaolin and azalaic acid); (4) ONA; (5) SUNCROPS and ONA; (6) SUNCROPS PLUS and ONA; (7) SCREEN DUO (kaolin and salicylates) and (8) ECLIPSE™. Foliage and fruit were evaluated before and after treatments at regular intervals for signs of phytotoxicity. […] Furthermore, no signs of uncontrolled disease incidence was detected.
SUNCROPS, SUNCROPS PLUS, SCREEN DUO, and ECLIPSE are commercial treatments which are used in the management of abiotic stress. Kaolins and calcium carbonates reduce stress by reflecting the ultraviolet, visible and infrared rays, reducing the impact of excessive heat and light in photosynthesis and other essential plant cellular processes. The dicarboxylic acids, such as the azalaic acid in SUNCROPS PLUS, physiologically act by interacting on lipo-oxygenation processes and production of reactive oxygen species. (Greenberg et al. “The lipid whisker model of the structure of oxidized cell membranes.” J. Biol. Chem. 283, 2385-96, 2008)
The apple trees received six applications of each formulation at the dosages indicated in the “Dosage” column of Table 1. Tomato plants received biweekly treatments from fruit formation to fruit harvest (a total of 6 applications).
The different stages of fruit development correspond to (1) cell division (2) pit hardening (stone fruits only) (3) cell expansion and (4) fruit ripening. The start of the tests was done during the cell division phase. This phase corresponds to the period with increased susceptibility to damage from high temperatures, and can be correlated with increase in fruits having reduced size and decrease in the number of fruits per plant as a consequence of the abiotic stress due to high temperatures.
Treatment with ONA alone or in combination with SUNCROPS and SUNCROPS PLUS was compared with standard treatments for managing heat, light and water stress which include SCREEN DUO, SUNCROPS, SUNCROPS PLUS and ECLIPSE (see Table 1).
In tomato plants, abiotic stress generates significant yield losses starting at temperatures of 29° C. in periods of 3-5 hours and increase as the season progresses. Furthermore, once the fruit has developed, the fruit is more susceptible to damage from heat and light, which is expressed as sunburn. The sunburn damage is very severe from the period of greatest susceptibility (once the fruit has developed) until the beginning of the color change in the fruits from yellow to green and red. […]
The yield and sunburn were evaluated as described in Table 4 below. […] The fruit were first evaluated visually: fruits with red color as adequate for industrial processing, fruits with green color as inadequate and inappropriate for industrial processing and fruits damaged by the sun as disposable. […]

## O=CCCCCCCCC(=O)O [ONA, 9-Oxononanoic acid]
  Performance compared with commercial treatments for management of heat, light and water stress: outperformed other commercial treatments
6 applications
  Yield total: 144.6 Ton/ha
Botalcura, Talca, Chile, biweekly treatments, 6 applications
  Sunburned Fruit: 26.8
Fruits damaged by the sun, 6 applications
  Yield Sunburn: 12.2 Ton/ha
Red fruit adequate for industrial processing, 6 applications
  Yield Red fruit: 132.4 Ton/ha
